Screens as filed in PubChem BioAssay.
Only some compounds are listed: those with a hit (about 1.3% of all), similar ones and a draw of the others.
EWS-Fli block: blocks EWS/Fli oncoprotein-driven transcription | A673 NR0B1-luciferase reporter, viability-normalised | inhibition, % at 12.6 µM | 0.67% of 350,000 active;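 active = mean inhibition of at least 50% after viability correction, with every replicate also passing that limit; inconclusive = mean reaches 50% but only one of two replicates passes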;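 note: firefly luciferase signal divided by Alamar Blue viability fluorescence both relative to DMSO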
PglD inh: blocks C. jejuni PglD acetyltransferase activity; purified PglD enzyme, DTNB colorimetric CoA detection; inhibition, % at 12.5 µM; 0.098% of 360,000 active; AID 602405; in the data active = inhibition above about 16%, passing the limit was not always enough; inconclusive = no clear call, values can overlap the other calls
UUG fidelity: modulators of start codon recognition fidelity in yeast. S. cerevisiae UUG-firefly luciferase reporter, luminescence/redox ratio. activity score, % at 18.7 µM. 0.13% of 350,000 active. AID 602363;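 active = replicate mean at a twofold rise or more, about +100% in these data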;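 also: firefly luciferase made from a UUG start codon reports start codon fidelity; reporter light over untreated wells divided by growth signal over untreated wells; some hits fall short of that in this replicate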
CFTR F508del cor: correctors of CFTR F508del function in bronchial epithelial cells | CFBE cells, YFP halide quenching; stimulated with forskolin plus potentiator P3; % fluorescence drop versus neutral controls | activity (quench increase), % at 7.58 µM | 0.36% of 350,000 active;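 active = mean added fluorescence quench of at least 8% versus neutral control, with both replicates also reaching 8%; inconclusive = only one of the mean or replicate conditions met; inactive = mean below 8% and not both replicates reaching 8%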;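 note: cells transiently co-express mutant CFTR-F508del with the halide-sensitive YFP; corrector assay measuring rescue of mutant channel to the surface after 24 h compound exposure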
LGR2 inh: blocks bursicon-induced cAMP signaling via Drosophila LGR2; HEK293 LGR2, CRE-luciferase, bursicon-stimulated, 4 h; inhibition, % at 9.99 µM; 0.35% of 380,000 active;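 active = drop in luminescence signal, shown as inhibition above about 50% in the replicate tests, limit read from the data, passing the limit was not always enough; inconclusive = probably only some replicates passing the limit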;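 note: agonist challenge used bursicon conditioned medium at about half maximal strength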
miR122 inh: inhibitors of miR-122 in Huh7 cells; Huh7 miR-122 Renilla luciferase sensor, 48 h; neutral wells = 0, positive control = 100; activation (reporter increase), % at 12.5 µM; 0.3% of 340,000 active; AID 602342;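 active = mean replicate activation score at least 90 and every replicate individually at or above 90; inconclusive = only one of the two criteria met; inactive = neither criterion met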;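 note: higher luciferase means less miR-122 activity so hits act as miR-122 inhibitors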
DNA binding: DNA binding small molecules; shares compounds with EWS-Fli block; salmon sperm DNA acridine orange fluorescence polarization; 2% of 640 active; AC35, µM (titrated, usually from 68 µM);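 active = fitted curve reaches a 35% signal fall AC35 below twice the sample's top valid tested dose, actives reach about 48 µM in these data; inactive = the rest, including activity in the rising direction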;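 note: lower polarization ratio signals compound binding to DNA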
Of the large screens only hits and unclear results are named; the others gave an inactive call (follow-up assays come after a bar, where they were run); ! = repeats disagree.

C[C@@H]1CN([C@H](C)CO)C(=O)Cc2cc(NC(=O)c3ccncc3)ccc2O[C@@H]1CN(C)Cc1ccccc1	none
COc1cccc(NC(=O)CNC(=O)c2ccccc2)c1	none (no result: EWS-Fli block, CFTR F508del cor)
COc1ccc(NS(=O)(=O)c2cc(NC(=O)CNC(=O)c3cccc(OC)c3)ccc2C)cc1	EWS-Fli block 63.0 (no result: CFTR F508del cor) | DNA binding inactive
CCCc1nc2ccc(NC(C)=O)cc2c(=O)n1Cc1ccc(Cl)cc1	none (no result: PglD inh, UUG fidelity, miR122 inh)
CCCc1nc2ccc(NC(=O)c3cccs3)cc2c(=O)n1Cc1ccccc1Cl	EWS-Fli block 60.2 (no result: PglD inh, UUG fidelity, CFTR F508del cor, miR122 inh) | DNA binding inactive
O=c1[nH]c(=O)n([C@H]2C[C@H](O)[C@@H](CO)O2)cc1C(F)(F)F	EWS-Fli block 56.6 | DNA binding inactive
O=c1[nH]c(=O)n(C2C[C@H](O)[C@@H](CO)O2)cc1C(F)(F)F (some centres not stated)	EWS-Fli block 62.2 | DNA binding inactive
Cc1ccc(CSCC(Nc2ccc(C(=O)O)cc2[N+](=O)[O-])C(=O)O)cc1 (configuration not stated)	none
CCN(CC)C(=O)CN1C(=O)C(=O)c2ccccc21	EWS-Fli block 54.1 (no result: PglD inh, UUG fidelity) | DNA binding inactive
O=C(CN1C(=O)C(=O)c2ccccc21)c1ccc(Cl)cc1	EWS-Fli block 60.3 | DNA binding inactive
O=C(CN1C(=O)C(=O)c2ccccc21)OCN1C(=O)c2ccccc2C1=O	none (no result: LGR2 inh)
CCOc1ccc(-c2cc(CCCC(=O)N3CCN(c4ccc(OC)cc4)CC3)no2)cc1	EWS-Fli block 60.0 (no result: miR122 inh) | DNA binding inactive
CC(=O)c1ccc(NC(=O)c2noc3c2CCC3)cc1	EWS-Fli block 59.7, LGR2 inh 64.0 | DNA binding inactive
Cn1c(N=Nc2ccccc2)nc2ccccc21	none (no result: LGR2 inh)
CN(C)c1ccc(N=Nc2nc3ccccc3n2C)cc1	EWS-Fli block 86.4, LGR2 inh 102.8 | DNA binding inactive
O=C(N/N=C/c1c(F)cccc1Cl)C1CC1	none
CC(C)(C)c1ccc(/C=N/Nc2ccc(C(=O)O)cc2)cc1	EWS-Fli block 67.4, LGR2 inh 58.1 (no result: CFTR F508del cor) | DNA binding inactive
CCNC(=S)N/N=C/c1ccc(C(=O)O)cc1	none (no result: PglD inh, UUG fidelity)
O=C(O)c1ccc(N/N=C/c2ccc3c(c2)OCO3)cc1	EWS-Fli block 85.3, LGR2 inh 101.5 (no result: PglD inh, UUG fidelity) | DNA binding inactive
O=C(O)c1ccc(N/N=C/c2c(F)cccc2Cl)cc1	EWS-Fli block 74.6, LGR2 inh 76.3 (no result: miR122 inh) | DNA binding inactive
O=C(Nc1ccc2nc([C@H]3C[C@H](O)[C@@H](CO)O3)[nH]c2c1)NC(c1ccccc1)c1ccccc1	none (no result: miR122 inh)
O=c1c2ccccc2oc2cc(C#CC3(O)CCCCC3)ccc12	EWS-Fli block 76.6 (no result: LGR2 inh) | DNA binding inactive
O=c1[nH]c(/C=C2\C=Nc3ccccc32)c(O)n1Cc1ccccc1F	EWS-Fli block 63.2 | DNA binding inactive
CCOc1cc(-c2c(C)c(CC)nc(N)c2C#N)ccc1O	none (no result: EWS-Fli block, CFTR F508del cor, LGR2 inh)
CCc1nc(N)nc(N)c1-c1ccc(Cl)c(N=[N+]=[N-])c1	EWS-Fli block 66.8! (no result: PglD inh, UUG fidelity) | DNA binding inactive
CC(C)CCNC(=O)NC(=O)CSc1nnc(COc2ccccc2Cl)o1	none (no result: EWS-Fli block, CFTR F508del cor, LGR2 inh)
CCCCCCN(C(=O)CCCCCN1C(=O)NC(c2ccc(Cl)cc2)C(C(=O)OCc2ccccc2)=C1C)C(C(=O)NCCCC)c1ccc(OCC(=O)OC)c(C(=O)OC)c1 (configuration not stated)	EWS-Fli block 66.0 (no result: PglD inh, UUG fidelity, miR122 inh) | DNA binding inactive
O=C(O)c1ccccc1NC(=O)C1CCCO1 (configuration not stated)	none (no result: EWS-Fli block, CFTR F508del cor, LGR2 inh)
O=C(NCCc1ccccc1)c1ccccc1NC(=O)C1CCCO1 (configuration not stated)	EWS-Fli block 71.3 (no result: PglD inh, UUG fidelity, miR122 inh) | DNA binding inactive
O=C(O)c1ccccc1C(=O)Nc1ccc(Oc2cccc3ccccc23)cc1	EWS-Fli block 85.7 (no result: PglD inh, UUG fidelity, miR122 inh) | DNA binding inactive
O=C(O)c1ccccc1C(=O)Nc1ccc(Oc2ccc3ccccc3c2)cc1	EWS-Fli block 57.7 | DNA binding inactive
CCn1c(CNC(=O)c2ccccc2OC)nnc1SCC(=O)c1ccc(F)cc1	none
CCCCc1c(-c2ccccc2OC)ncn1Cc1ccccc1	none (no result: PglD inh, UUG fidelity, miR122 inh)
CCCCc1c(-c2ccccc2OC)ncn1Cc1ccc(C(C)(C)C)cc1	EWS-Fli block 62.3 (no result: PglD inh, UUG fidelity, miR122 inh) | DNA binding inactive
Cc1ccccc1N=CC1=C(O)c2ccccc2C1=O	EWS-Fli block 77.3, LGR2 inh 100.9 (no result: PglD inh, UUG fidelity, miR122 inh) | DNA binding inactive
COc1ccc(-c2ccc3c(c2)[C@@H]2[C@@H](CCN2S(=O)(=O)c2ccc(OC)cc2)[C@H](CO)N3C)cc1	none
Cc1ccccc1S(=O)(=O)N1CC[C@@H]2[C@@H](CO)Nc3ccc(-c4ccc(C#N)cc4)cc3[C@@H]21	EWS-Fli block 54.4 | DNA binding inactive
CN1c2ccc(-c3ccc(C#N)cc3)cc2[C@H]2[C@H](CCN2S(=O)(=O)c2cccc(F)c2)[C@@H]1CO	EWS-Fli block 61.2, CFTR F508del cor inconclusive | DNA binding inactive
CN1c2ccc(-c3cccc(C#N)c3)cc2[C@H]2[C@H](CCN2S(=O)(=O)c2cccc(F)c2)[C@H]1CO	none
COc1ccc(-c2ccc3c(c2)[C@H]2[C@H](CCN2S(=O)(=O)c2ccc(OC)cc2)[C@@H](CO)N3C)cc1	EWS-Fli block 54.7, CFTR F508del cor inconclusive | DNA binding inactive
CC(C)CN(C(=O)CSc1nnc2ccccn12)c1c(N)n(CC(C)C)c(=O)[nH]c1=O	none (no result: EWS-Fli block, CFTR F508del cor)
O=C(NCc1cccs1)C1CCN(S(=O)(=O)c2cccc([N+](=O)[O-])c2)CC1	none (no result: miR122 inh)
Oc1[nH]c2ccccc2c1N=NC(=S)N1CCOCC1	none (no result: EWS-Fli block, CFTR F508del cor, LGR2 inh)
Oc1[nH]c2ccc(Br)cc2c1N=NC(=S)N1CCOCC1	EWS-Fli block 57.1 | DNA binding inactive
CN(C[C@H]1N[C@@H](CO)[C@@H]1c1ccc(C2=CCCC2)cc1)C(=O)c1cccc(F)c1	EWS-Fli block 77.4 | DNA binding inactive
COc1ccccc1CNC(=O)C[C@@H]1CC[C@H]2[C@@H](COC[C@H](O)CN2C(=O)Nc2ccc(C(F)(F)F)cc2)O1	EWS-Fli block 69.9 | DNA binding inactive
Cc1cc2c(nn1)CCc1c-2no[n+]1[O-]	none
COc1cc(-c2cnc3c(NC=O)cc(-c4cccc(NC(C)=O)c4)cn23)cc(OC)c1OC	EWS-Fli block 62.1 (no result: CFTR F508del cor) | DNA binding inactive
COc1cccc(-c2cc(NC=O)c3ncc(-c4ccc(C(C)=O)cc4)n3c2)c1	EWS-Fli block 51.8 | DNA binding inactive
CC(=O)c1ccc(OC2(C)CCN(Cc3ccc4c(c3)OCCO4)C2)cc1 (configuration not stated)	none
CC1(C)N=C(N)N=C(N)N1c1ccc(OCCCOc2ccccc2)c(Cl)c1	EWS-Fli block 58.8 | DNA binding inactive
CC(C)Cn1c2c(c(O)c(C(=O)Nc3nc4ccccc4s3)c1=O)CCCC2	none
Cc1ccc2ccccc2c1Cn1c(-n2ccnc2)nc2c1c(=O)n(C)c(=O)n2C	none (no result: EWS-Fli block, CFTR F508del cor, LGR2 inh)
